Measurements: patent US8993631B2, “Method of treating contrast-induced nephropathy” (Novartis AG, priority 2010, dated 2015)

The chains behind the UniProt entries cited, without tags or fusion partners.
UniProt P08473, whole entry: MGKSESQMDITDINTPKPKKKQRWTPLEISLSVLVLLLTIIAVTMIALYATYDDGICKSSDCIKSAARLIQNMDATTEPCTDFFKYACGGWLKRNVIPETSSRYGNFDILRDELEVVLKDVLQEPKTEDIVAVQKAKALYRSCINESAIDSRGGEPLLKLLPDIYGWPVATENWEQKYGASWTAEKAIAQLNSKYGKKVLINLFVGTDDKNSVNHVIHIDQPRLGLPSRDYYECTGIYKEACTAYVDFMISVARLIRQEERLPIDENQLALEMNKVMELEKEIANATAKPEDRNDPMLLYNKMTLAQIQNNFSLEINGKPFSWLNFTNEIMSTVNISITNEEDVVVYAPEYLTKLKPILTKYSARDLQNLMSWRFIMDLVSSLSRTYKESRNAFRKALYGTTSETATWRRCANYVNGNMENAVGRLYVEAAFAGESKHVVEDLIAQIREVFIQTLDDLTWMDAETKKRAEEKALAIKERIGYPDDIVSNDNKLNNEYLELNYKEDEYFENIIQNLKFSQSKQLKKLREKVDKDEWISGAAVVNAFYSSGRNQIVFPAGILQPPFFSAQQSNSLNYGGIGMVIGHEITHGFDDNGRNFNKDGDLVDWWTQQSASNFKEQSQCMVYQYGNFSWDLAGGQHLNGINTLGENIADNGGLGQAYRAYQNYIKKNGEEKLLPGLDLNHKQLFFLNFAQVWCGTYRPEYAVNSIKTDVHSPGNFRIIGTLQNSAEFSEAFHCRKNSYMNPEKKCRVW

Biological target: recombinant human neutral endopeptidase (NEP, EC 3.4.24.11) (Homo sapiens (Human), UniProt P08473)
Experiment: In vitro inhibition of recombinant human neutral endopeptidase (fluorescence lifetime assay)
Assay type: biochemical
Conditions: read-out: Human NEP IC50; 1 hour pre-incubation, effect determined after 1 hour at room temperature, pH 7.4

O=C(O)C[C@@H](Cc1ccc(-c2cccc(Cl)c2)cc1)NC(=O)c1cc(O)no1
pIC50: 10.15

pIC50: −log10 of the molar value.
